Assay results: paper PMC6424980, “Distinct G protein-coupled receptor phosphorylation motifs modulate arrestin affinity and activation and global conformation” (Nature Communications, 2019)

The chains behind the UniProt entries cited, without tags or fusion partners.
UniProt P08168, whole entry F85A/F197A: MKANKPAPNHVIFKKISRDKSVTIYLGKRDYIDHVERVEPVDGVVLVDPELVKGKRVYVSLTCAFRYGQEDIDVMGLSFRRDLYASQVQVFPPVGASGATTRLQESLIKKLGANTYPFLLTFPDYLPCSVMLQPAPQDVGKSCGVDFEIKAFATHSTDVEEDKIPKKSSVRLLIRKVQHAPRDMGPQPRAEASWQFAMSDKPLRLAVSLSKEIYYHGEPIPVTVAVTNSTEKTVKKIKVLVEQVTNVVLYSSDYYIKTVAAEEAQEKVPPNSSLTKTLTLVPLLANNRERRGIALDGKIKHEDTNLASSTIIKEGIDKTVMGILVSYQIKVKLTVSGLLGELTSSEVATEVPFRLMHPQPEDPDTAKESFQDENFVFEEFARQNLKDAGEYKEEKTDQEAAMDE

How the values were obtained:
[1] = test system: arrestin-1 mutants I72B and F197NBD with nonphosphorylated light-activated rhodopsin in ROS membranes; assay: Ternary complex formation (site-directed fluorescence and centrifugal pull-down); format: biochemical, bovine; conditions: 10 µM rhodopsin in ROS, 1 µM arrestin-1 I72B or F197NBD, 100 µM peptide, pH 7
Text: Recombinant bovine arrestin-1 cloned into the pET15b vector was expressed and purified as described. The basic construct was a modified wild-type sequence that contained no native cysteines (C63A, C128S and C143A) nor tryptophans (W194F). Single cysteine residues were introduced by PCR at sites 72 or 197 as previously described. The I72C mutant was labeled with monobromobimane (Thermo Fisher) and is referred to as I72B. The F197C mutant was labeled with N,N′-Dimethyl-N-(Iodoacetyl)-N′-(7-Nitrobenz-2-Oxa-1,3-Diazol-4-yl)Ethylenediamine (IANBD amide, Thermo Fisher) and is referred to as F197NBD. Labeling was carried out as previously described[43],[61]. Both labeled mutants were assessed to be functionally similar to wild-type arrestin-1 using the Extra Meta II assay, which determines the ability of arrestin-1 to bind and stabilize the active Meta II form of rhodopsin[64].
Under dim-red light, samples were prepared that contained nonphosphorylated rhodopsin (10 µM) in ROS membranes, 1 µM arrestin-1 I72B or F197NBD, ±100 µM peptide in 50 mM HEPES, 130 mM NaCl, pH 7 (150 or 200 µl sample volume). One hundred microliters of the sample was used for fluorescence measurements, and the remainder was used for the centrifugal pull-down assay (50 µl per assay). Steady-state fluorescence measurements were performed using a SPEX Fluorolog (1680) instrument in front-face mode. Bimane fluorescence was recorded using an excitation wavelength of 400 nm and emission 424–600 nm, and NBD fluorescence was recorded using an excitation wavelength of 500 nm and emission 524–660 (2 nm step size, 0.5 s integration per point). Excitation slits were narrowed to 0.1−0.2 nm to minimize light-activation of rhodopsin, and emission slits were set at 4 nm. Pull-down analysis was performed by centrifuging samples at 16,000 × g for 10 min at 20 °C. Selected samples were light activated (>495 nm) for 15 s prior to centrifugation (appr. 60 s delay time). Following centrifugation, the supernatants were removed, and the pellets were solubilized in loading buffer containing 2% SDS and subjected to SDS PAGE. Bands were visualized using Coomassie Brilliant Blue.

arrestin-3 [2] = assay: Fluorescence anisotropy binding of fluorescein-labelled peptides to arrestin-3; design: species or system human
Text: (§1) Synthesized cDNAs of bovine arrestin-1, human arrestin-2 and human arrestin-3 were ordered from Genewiz, amplified by PCR and cloned (Supplementary Information Table 5) into the pET-15b vector (Novagen), using the Gibson Assembly protocol. The constructs contained an N-terminal hexa histidine tag linked by a linker that contained a Tobacco Etch Virus cleavage site (TEV; […]). PCR was used to introduce the monomerizing arrestin-1 mutations (F85A, F197A)[58]. Note that this mutant was employed for fluorescence anisotropy, trypsin digestion, and NMR experiments. Wild-type arrestin-2 and -3 were used for fluorescence anisotropy and trypsin digestion experiments. […] The arrestin-1 in this construct had the wild-type sequence. Note that this construct differs slightly from that previously published[59],[60] and was optimized for purification. We verified the functionality of this fusion construct using the standard centrifugal pull-down assay using phosphorylated rhodopsin in native ROS membranes.
0.1–0.2 mg of lyophilized peptide was dissolved in 50 µl of 50 mM phosphate-buffered saline (PBS) buffer at pH 7.0, and then two molar equivalents of fluorescein-5-maleimide dye stock dissolved in dimethylsulfoxid was added. The reaction was carried out at RT in the dark. After 1 h the reaction was topped up with 1 ml of ice-cold 100% acetone and stored until the next day at −20 °C. The precipitated peptide was centrifuged (13,000 × g) for 10 min. The labeled and precipitated peptide was sedimented, and the supernatant was removed. […] It was dissolved in 50 µl of 20 mM Bis-Tris propane pH 7.0 and 150 mM NaCl and its concentration was determined by absorbance. […]
An 11-step serial dilution series of arrestin in 20 mM Bis-Tris propane pH 7.0, 150 mM NaCl, 8 mM 2‑mercaptoethanol, 2% (w/w) BSA, 0.02% (v/v) Tween-20 was prepared and transferred to a black high-bottom 384-well plate (Greiner). […] The reading was performed by default settings of PHERAstar plate-reader (BMG Labtech) and excitation‑/emission-wavelengths of 485 nm (12 nm bandpass)/520 nm (30 nm bandpass) were used. […]

arrestin-2 = assay: Limited trypsin digestion of arrestin-2 in presence of peptide; format: biochemical, human; conditions: arrestin:peptide 1:1.2, 35 °C, SDS PAGE
Text: as §1
Arrestin (60 µg) was mixed at a 1 to 1.2 molar ratio with peptide and preincubated at RT for 5 min before 1 μl of 0.15 mg/ml trypsin stock was added. The enzymatic digestion was carried out at 35 °C (20 mM Bis-Tris propane pH 7.0, 150 mM NaCl, 10 mM 2‑Mercaptoethanol and 2 mM EDTA). At certain time points (5, 15, 30, 60, 90 min), 5 μl aliquots were quenched with heat incubation in the presence of 20 μl SDS loading buffer (95 °C, 5 min) and then subjected to SDS PAGE. Bands were visualized with InstantBlue (Expedeon).

[3] = target: T1, arrestin-1 (monomerizing mutant F85A, F197A) (Bos taurus, UniProt P08168, F197A/F85A); assay: Fluorescence anisotropy binding of fluorescein-labelled peptides to arrestin-1; design: species or system bovine; conditions: read-out: Kd for arrestin-1, 20 nM labelled peptide, pH 7.0, RT, one-to-one binding model, triplicate
T1 construct: made in house; host or cells: E. coli NiCo (DE3) cells (New England Biolabs), pET-15b vector
Text: as §1
0.1–0.2 mg of lyophilized peptide was dissolved in 50 µl of 50 mM phosphate-buffered saline (PBS) buffer at pH 7.0, and then two molar equivalents of fluorescein-5-maleimide dye stock dissolved in dimethylsulfoxid was added. The reaction was carried out at RT in the dark. […] It was dissolved in 50 µl of 20 mM Bis-Tris propane pH 7.0 and 150 mM NaCl and its concentration was determined by absorbance. […]

arrestin-1 (F85A, F197A) = assay: Limited trypsin digestion of arrestin-1 in presence of peptide; format: biochemical, bovine; conditions: arrestin:peptide 1:1.2, 35 °C, SDS PAGE
Text: as §1
(§2) Arrestin (60 µg) was mixed at a 1 to 1.2 molar ratio with peptide and preincubated at RT for 5 min before 1 μl of 0.15 mg/ml trypsin stock was added. The enzymatic digestion was carried out at 35 °C (20 mM Bis-Tris propane pH 7.0, 150 mM NaCl, 10 mM 2‑Mercaptoethanol and 2 mM EDTA). […]

arrestin-3 [4] = assay: Limited trypsin digestion of arrestin-3 in presence of peptide; format: biochemical, human; conditions: arrestin:peptide 1:1.2, 35 °C, SDS PAGE
Text: as §1, §2

Structure (SMILES)	ternary complex formation (arrestin-1, nonphosphorylated rhodopsin, peptide) [1]	binding to arrestin-3 (in words) (arrestin-3 [2])	rate of trypsin digestion of arrestin-2 (arrestin-2)	pKd [3]	limited trypsin digest pattern of arrestin-1 (conformational change, C-tail displacement) (arrestin-1 (F85A, F197A))	limited trypsin digest pattern of arrestin-3 (arrestin-3 [4])
CC(C)[C@H](NC(=O)[C@H](CCC(N)=O)NC(=O)[C@H](COP(=O)(O)O)NC(=O)[C@@H](NC(=O)[C@H](CCC(=O)O)NC(=O)[C@@H](NC(=O)[C@H](CCCCN)NC(=O)[C@H](CO)NC(=O)[C@@H](NC(=O)[C@@H](NC(=O)[C@@H](NC(=O)[C@H](COP(=O)(O)O)NC(=O)[C@H](C)NC(=O)[C@H](CCC(=O)O)NC(=O)[C@H](CC(=O)O)NC(=O)[C@H](CC(=O)O)NC(=O)[C@@H](N)CS)[C@@H](C)O)[C@@H](C)O)C(C)C)[C@@H](C)OP(=O)(O)O)[C@@H](C)O)C(=O)N[C@@H](C)C(=O)N1CCC[C@H]1C(=O)N[C@@H](C)C(=O)O [3Pa]	Efficient ternary complex formation; also recorded: robust ternary complex formation	–	–	–	–	–
CC(C)[C@H](NC(=O)[C@H](CCC(N)=O)NC(=O)[C@H](COP(=O)(O)O)NC(=O)[C@@H](NC(=O)[C@H](CCC(=O)O)NC(=O)[C@@H](NC(=O)[C@H](CCCCN)NC(=O)[C@H](CO)NC(=O)[C@@H](NC(=O)[C@@H](NC(=O)[C@@H](NC(=O)[C@H](CO)NC(=O)[C@H](C)NC(=O)[C@H](CCC(=O)O)NC(=O)[C@H](CC(=O)O)NC(=O)[C@H](CC(=O)O)NC(=O)[C@@H](N)CS)[C@@H](C)OP(=O)(O)O)[C@@H](C)O)C(C)C)[C@@H](C)OP(=O)(O)O)[C@@H](C)O)C(=O)N[C@@H](C)C(=O)N1CCC[C@H]1C(=O)N[C@@H](C)C(=O)O [3Pb]	Efficient ternary complex formation; also recorded: robust ternary complex formation	–	–	–	–	–
CC(C)[C@H](NC(=O)[C@H](CCC(N)=O)NC(=O)[C@H](COP(=O)(O)O)NC(=O)[C@@H](NC(=O)[C@H](CCC(=O)O)NC(=O)[C@@H](NC(=O)[C@H](CCCCN)NC(=O)[C@H](COP(=O)(O)O)NC(=O)[C@@H](NC(=O)[C@@H](NC(=O)[C@@H](NC(=O)[C@H](CO)NC(=O)[C@H](C)NC(=O)[C@H](CCC(=O)O)NC(=O)[C@H](CC(=O)O)NC(=O)[C@H](CC(=O)O)NC(=O)[C@@H](N)CS)[C@@H](C)O)[C@@H](C)O)C(C)C)[C@@H](C)OP(=O)(O)O)[C@@H](C)O)C(=O)N[C@@H](C)C(=O)N1CCC[C@H]1C(=O)N[C@@H](C)C(=O)O [3Pc]	Efficient ternary complex formation; also recorded: robust ternary complex formation	–	–	–	–	–
CC(C)[C@H](NC(=O)[C@H](CCC(N)=O)NC(=O)[C@H](COP(=O)(O)O)NC(=O)[C@@H](NC(=O)[C@H](CCC(=O)O)NC(=O)[C@@H](NC(=O)[C@H](CCCCN)NC(=O)[C@H](CO)NC(=O)[C@@H](NC(=O)[C@@H](NC(=O)[C@@H](NC(=O)[C@H](CO)NC(=O)[C@H](C)NC(=O)[C@H](CCC(=O)O)NC(=O)[C@H](CC(=O)O)NC(=O)[C@H](CC(=O)O)NC(=O)[C@@H](N)CS)[C@@H](C)O)[C@@H](C)OP(=O)(O)O)C(C)C)[C@@H](C)OP(=O)(O)O)[C@@H](C)O)C(=O)N[C@@H](C)C(=O)N1CCC[C@H]1C(=O)N[C@@H](C)C(=O)O [3Pd]	Efficient ternary complex formation; also recorded: robust ternary complex formation	–	–	–	–	–
CC(C)[C@H](NC(=O)[C@H](CCC(N)=O)NC(=O)[C@H](COP(=O)(O)O)NC(=O)[C@@H](NC(=O)[C@H](CCC(=O)O)NC(=O)[C@@H](NC(=O)[C@H](CCCCN)NC(=O)[C@H](CO)NC(=O)[C@@H](NC(=O)[C@@H](NC(=O)[C@@H](NC(=O)[C@H](COP(=O)(O)O)NC(=O)[C@H](C)NC(=O)[C@H](CCC(=O)O)NC(=O)[C@H](CC(=O)O)NC(=O)[C@H](CC(=O)O)NC(=O)[C@@H](N)CS)[C@@H](C)O)[C@@H](C)OP(=O)(O)O)C(C)C)[C@@H](C)OP(=O)(O)O)[C@@H](C)O)C(=O)N[C@@H](C)C(=O)N1CCC[C@H]1C(=O)N[C@@H](C)C(=O)O [4P]	Efficient ternary complex formation	higher affinity	accelerated	–	–	–
CC(C)[C@H](NC(=O)[C@H](CCC(N)=O)NC(=O)[C@H](COP(=O)(O)O)NC(=O)[C@@H](NC(=O)[C@H](CCC(=O)O)NC(=O)[C@@H](NC(=O)[C@H](CCCCN)NC(=O)[C@H](COP(=O)(O)O)NC(=O)[C@@H](NC(=O)[C@@H](NC(=O)[C@@H](NC(=O)[C@H](CO)NC(=O)[C@H](C)NC(=O)[C@H](CCC(=O)O)NC(=O)[C@H](CC(=O)O)NC(=O)[C@H](CC(=O)O)NC(=O)[C@@H](N)CS)[C@@H](C)OP(=O)(O)O)[C@@H](C)OP(=O)(O)O)C(C)C)[C@@H](C)OP(=O)(O)O)[C@@H](C)OP(=O)(O)O)C(=O)N[C@@H](C)C(=O)N1CCC[C@H]1C(=O)N[C@@H](C)C(=O)O [6P]	Efficient ternary complex formation	higher affinity	accelerated	–	–	–
CC(C)[C@H](NC(=O)[C@H](CCC(N)=O)NC(=O)[C@H](COP(=O)(O)O)NC(=O)[C@@H](NC(=O)[C@H](CCC(=O)O)NC(=O)[C@@H](NC(=O)[C@H](CCCCN)NC(=O)[C@H](COP(=O)(O)O)NC(=O)[C@@H](NC(=O)[C@@H](NC(=O)[C@@H](NC(=O)[C@H](COP(=O)(O)O)NC(=O)[C@H](C)NC(=O)[C@H](CCC(=O)O)NC(=O)[C@H](CC(=O)O)NC(=O)[C@H](CC(=O)O)NC(=O)[C@@H](N)CS)[C@@H](C)OP(=O)(O)O)[C@@H](C)OP(=O)(O)O)C(C)C)[C@@H](C)OP(=O)(O)O)[C@@H](C)OP(=O)(O)O)C(=O)N[C@@H](C)C(=O)N1CCC[C@H]1C(=O)N[C@@H](C)C(=O)O [7P]	Efficient ternary complex formation	higher affinity	accelerated	> 3.60	two major bands	change of the digestion pattern from three to two bands

pKd: −log10 of the molar value. “Also recorded” adds a separate entry of the source.
